Results reported in PMC12282101, “Heat shock protein 90 chaperone activity is required for hepatitis A virus replication” (Journal of Virology, 2025).

System: Huh-7.5.1 cells
Conditions: 10 µM

Clc1ccc(COC(Cn2ccnc2)c2ccc(Cl)cc2Cl)cc1 (stereo not shown) [Econazole]
Viability Percent DMSO: 104 Percent DMSO
